System: Type I Collagen gene Col1a1 expression
Assay: Precision cut lung slices of mice under acute bleomycin exposure
Format: cell-based, mouse
Description: Mice (C57BL/6) were administered 3 U/kg of bleomycin (Teva Pharmaceuticals; North Wales, PA) on day 0 via oropharyngeal aspiration while under anesthesia. On day 14, precision cut lung slices were obtained. Following euthanization, 2% low gelling temp agarose was injected into the mouse lungs via the trachea. […] The lobes were then subjected to precision slicing to obtain samples for culture using a microtome (Compresstome VF-300-0Z, Precisionary; Greenville, NC). Individual slices were distributed in a multiwell culture plate and cultured for 3 days under control (DMSO) and test compound conditions.

## Cc1cc(C)n(-c2cccc([C@H](CC(=O)O)CN3CC[C@H](CCc4ccc5c(n4)NCCC5)C3)c2)n1 [first pan-αv small molecule inhibitor, (3S)-3-[3-(3,5-dimethyl-1H-pyrazol-1-yl)phenyl]-4-{(3S)-3-[2-(5,6,7,8-tetrahydro-1,8-naphthyridin-2-yl)ethyl]-1-pyrrolidinyl}butanoic acid]
  Type I Collagen gene Col1a1 expression vs DMSO control: reduced
